We go through one substance from article PMC10823771, “Investigating the replacement of carboxylates with carboxamides to modulate the safety and efficacy of platinum(II) thioether cyanide scavengers” (2023).

Some compounds may have been tested in ways that are not shown here.

The subject of one series is Zebrafish larvae. Conditions: exposed up to 1000 µM; ref Nath et al., 2017; cited from earlier work.
Another series deals with Sprague Dawley rats. The series can be described thus: Sprague Dawley toxicity model. Particulars: dose of up to 871 µmole/m^2, after 5 days. From the text: Sprague Dawley rats (Envigo and Inotiv) with weight ranges of 225–250 g were used for this study performed at the Purdue Translational Pharmacology and Clinical Veterinary Pathology Laboratories. Blood samples were drawn 1- and 5-days post-injection and processed for Comprehensive Metabolite Panel and Complete Blood Count Panel. Each sample group consisted of 3 males and 3 females unless otherwise specified in the results. At the end of the study, the animals were euthanized following the PHS Policy on the Human Care and Use of Animals, Guide for the Use and Care of Laboratory Animals. All methods were carried out in accordance with the regulations and guidelines of the Animal Welfare Act and the American Association for Accreditation of Laboratory Animal Care. The IACUC committee at Purdue University approved all experimental protocols (1405001069).
Complexes 1 and 3 were formulated in phosphate buffer. The final pH of the formulation at the time of injection was 6.5–7.0 using sodium hydroxide for pH adjustment. Complexes 2 and 4 were prepared in sodium acetate buffer (Ca^2+ and Mg^2+-free) with pH adjustments using sodium hydroxide to a target pH of 4.2. Final adjustments were made using Milli-Q water to reduce the osmolality of the solution.
Analysis was carried out using GraphPad Prism version 10.0.02. […]

Sodium tetracyanoplatinate anhydrous: the “toxicity or gross morphological signs in zebrafish” value with Zebrafish larvae is reported as “no signs of toxicity”. The renal toxicity entry in the series with Sprague Dawley rats is given as “no significant renal toxicity”.
